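Interpolation was linear, between the two tested concentrations surrounding the appropriate level; five concentrations were tested over 48 hours in 96-well plates. Abbreviation: GI50, concentration required for 50% inhibition of growth. TGI denotes the concentration required for complete inhibition of growth.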
How the values were obtained:
Assay in all cases: NCI anticancer screen, dose series, 48 h
RPMI-8226 leukemia = tested on: RPMI-8226 leukemia
MDA-N = tested on: MDA-N
CCRF-CEM leukemia = tested on: CCRF-CEM leukemia
SK-MEL-28 melanoma = tested on: SK-MEL-28 melanoma
M14 melanoma = tested on: M14 melanoma
TK-10 renal = tested on: TK-10 renal
HOP-62 NSCLC = tested on: HOP-62 NSCLC
T-47D breast = tested on: T-47D breast
HCC-2998 colon = tested on: HCC-2998 colon
OVCAR-4 ovarian = tested on: OVCAR-4 ovarian
SNB-75 CNS = tested on: SNB-75 CNS
HT29 colon = tested on: HT29 colon
RXF 393 renal = tested on: RXF 393 renal
UO-31 renal = tested on: UO-31 renal
HCT-15 colon = tested on: HCT-15 colon
NCI-H226 lung = tested on: NCI-H226 lung
786-0 renal = tested on: 786-0 renal
SNB-19 CNS = tested on: SNB-19 CNS
NCI-H23 lung = tested on: NCI-H23 lung
HOP-92 NSCLC = tested on: HOP-92 NSCLC
MDA-MB-435 = tested on: MDA-MB-435
MDA-MB-231 breast = tested on: MDA-MB-231 breast
OVCAR-5 ovarian = tested on: OVCAR-5 ovarian
A549 NSCLC = tested on: A549 NSCLC
KM12 colon = tested on: KM12 colon
K-562 leukemia = tested on: K-562 leukemia
OVCAR-3 ovarian = tested on: OVCAR-3 ovarian
IGROV1 ovarian = tested on: IGROV1 ovarian
SF-268 CNS = tested on: SF-268 CNS
PC-3 prostate = tested on: PC-3 prostate
SW-620 colon = tested on: SW-620 colon
U251 CNS = tested on: U251 CNS
EKVX NSCLC = tested on: EKVX NSCLC
MALME-3M melanoma = tested on: MALME-3M melanoma
LOX IMVI melanoma = tested on: LOX IMVI melanoma
NCI/ADR-RES ovarian = tested on: NCI/ADR-RES ovarian
BT-549 breast = tested on: BT-549 breast
CAKI-1 renal = tested on: CAKI-1 renal
DU-145 prostate = tested on: DU-145 prostate
SF-295 CNS = tested on: SF-295 CNS
HS 578T breast = tested on: HS 578T breast
SN12C renal = tested on: SN12C renal
SF-539 CNS = tested on: SF-539 CNS
SK-OV-3 ovarian = tested on: SK-OV-3 ovarian
OVCAR-8 ovarian = tested on: OVCAR-8 ovarian
MCF7 breast = tested on: MCF7 breast
SK-MEL-2 melanoma = tested on: SK-MEL-2 melanoma
HCT-116 colon = tested on: HCT-116 colon
COLO 205 colon = tested on: COLO 205 colon
MOLT-4 leukemia = tested on: MOLT-4 leukemia
SR leukemia = tested on: SR leukemia
UACC-257 melanoma = tested on: UACC-257 melanoma
HL-60(TB) leukemia = tested on: HL-60(TB) leukemia
SK-MEL-5 melanoma = tested on: SK-MEL-5 melanoma
UACC-62 melanoma = tested on: UACC-62 melanoma

Compound: O=C(OCC12COP(=O)(OC1)OC2)C(C(F)(F)F)C(F)(F)F
- GI50 (RPMI-8226 leukemia): > 100 µM
- TGI (RPMI-8226 leukemia): > 100 µM
- GI50 (MDA-N): > 100 µM
- TGI (MDA-N): > 100 µM
- GI50 (CCRF-CEM leukemia): > 100 µM
- TGI (CCRF-CEM leukemia): > 100 µM
- GI50 (SK-MEL-28 melanoma): > 100 µM
- TGI (SK-MEL-28 melanoma): > 100 µM
- GI50 (M14 melanoma): > 100 µM
- TGI (M14 melanoma): > 100 µM
- GI50 (TK-10 renal): > 100 µM
- TGI (TK-10 renal): > 100 µM
- GI50 (HOP-62 NSCLC): > 100 µM
- TGI (HOP-62 NSCLC): > 100 µM
- GI50 (T-47D breast): > 100 µM
- TGI (T-47D breast): > 100 µM
- GI50 (HCC-2998 colon): > 100 µM
- TGI (HCC-2998 colon): > 100 µM
- GI50 (OVCAR-4 ovarian): > 100 µM
- TGI (OVCAR-4 ovarian): > 100 µM
- GI50 (SNB-75 CNS): > 100 µM
- TGI (SNB-75 CNS): > 100 µM
- GI50 (HT29 colon): > 100 µM
- TGI (HT29 colon): > 100 µM
- GI50 (RXF 393 renal): > 100 µM
- TGI (RXF 393 renal): > 100 µM
- GI50 (UO-31 renal): 80.2 µM
- TGI (UO-31 renal): > 100 µM
- GI50 (HCT-15 colon): > 100 µM
- TGI (HCT-15 colon): > 100 µM
- GI50 (NCI-H226 lung): 43.2 µM
- TGI (NCI-H226 lung): > 100 µM
- GI50 (786-0 renal): > 100 µM
- TGI (786-0 renal): > 100 µM
- GI50 (SNB-19 CNS): > 100 µM
- TGI (SNB-19 CNS): > 100 µM
- GI50 (NCI-H23 lung): > 100 µM
- TGI (NCI-H23 lung): > 100 µM
- GI50 (HOP-92 NSCLC): > 100 µM
- TGI (HOP-92 NSCLC): > 100 µM
- GI50 (MDA-MB-435): > 100 µM
- TGI (MDA-MB-435): > 100 µM
- GI50 (MDA-MB-231 breast): > 100 µM
- TGI (MDA-MB-231 breast): > 100 µM
- GI50 (OVCAR-5 ovarian): > 100 µM
- TGI (OVCAR-5 ovarian): > 100 µM
- GI50 (A549 NSCLC): > 100 µM
- TGI (A549 NSCLC): > 100 µM
- GI50 (KM12 colon): > 100 µM
- TGI (KM12 colon): > 100 µM
- GI50 (K-562 leukemia): > 100 µM
- TGI (K-562 leukemia): > 100 µM
- GI50 (OVCAR-3 ovarian): > 100 µM
- TGI (OVCAR-3 ovarian): > 100 µM
- GI50 (IGROV1 ovarian): > 100 µM
- TGI (IGROV1 ovarian): > 100 µM
- GI50 (SF-268 CNS): > 100 µM
- TGI (SF-268 CNS): > 100 µM
- GI50 (PC-3 prostate): > 100 µM
- TGI (PC-3 prostate): > 100 µM
- GI50 (SW-620 colon): > 100 µM
- TGI (SW-620 colon): > 100 µM
- GI50 (U251 CNS): > 100 µM
- TGI (U251 CNS): > 100 µM
- GI50 (EKVX NSCLC): > 100 µM
- TGI (EKVX NSCLC): > 100 µM
- GI50 (MALME-3M melanoma): > 100 µM
- TGI (MALME-3M melanoma): > 100 µM
- GI50 (LOX IMVI melanoma): > 100 µM
- TGI (LOX IMVI melanoma): > 100 µM
- GI50 (NCI/ADR-RES ovarian): > 100 µM
- TGI (NCI/ADR-RES ovarian): > 100 µM
- GI50 (BT-549 breast): > 100 µM
- TGI (BT-549 breast): > 100 µM
- GI50 (CAKI-1 renal): > 100 µM
- TGI (CAKI-1 renal): > 100 µM
- GI50 (DU-145 prostate): > 100 µM
- TGI (DU-145 prostate): > 100 µM
- GI50 (SF-295 CNS): > 100 µM
- TGI (SF-295 CNS): > 100 µM
- GI50 (HS 578T breast): > 100 µM
- TGI (HS 578T breast): > 100 µM
- GI50 (SN12C renal): > 100 µM
- TGI (SN12C renal): > 100 µM
- GI50 (SF-539 CNS): > 100 µM
- TGI (SF-539 CNS): > 100 µM
- GI50 (SK-OV-3 ovarian): > 100 µM
- TGI (SK-OV-3 ovarian): > 100 µM
- GI50 (OVCAR-8 ovarian): > 100 µM
- TGI (OVCAR-8 ovarian): > 100 µM
- GI50 (MCF7 breast): > 100 µM
- TGI (MCF7 breast): > 100 µM
- GI50 (SK-MEL-2 melanoma): > 100 µM
- TGI (SK-MEL-2 melanoma): > 100 µM
- GI50 (HCT-116 colon): > 100 µM
- TGI (HCT-116 colon): > 100 µM
- GI50 (COLO 205 colon): > 100 µM
- TGI (COLO 205 colon): > 100 µM
- GI50 (MOLT-4 leukemia): > 100 µM
- TGI (MOLT-4 leukemia): > 100 µM
- GI50 (SR leukemia): > 100 µM
- TGI (SR leukemia): > 100 µM
- GI50 (UACC-257 melanoma): > 100 µM
- TGI (UACC-257 melanoma): > 100 µM
- GI50 (HL-60(TB) leukemia): > 100 µM
- TGI (HL-60(TB) leukemia): > 100 µM
- GI50 (SK-MEL-5 melanoma): > 100 µM
- TGI (SK-MEL-5 melanoma): > 100 µM
- GI50 (UACC-62 melanoma): > 100 µM
- TGI (UACC-62 melanoma): > 100 µM

Reference: PubChem BioAssay (NCI)
